From patent US20130287807A1, “COMPOUNDS FOR TREATING SYMPTOMS ASSOCIATED WITH PARKINSON'S DISEASE” (priority 2008, published 2013)

Experiments:
[1] = test system: monoclonal antibody (DAEFRH-peptide-specific); test: Inhibition assay (ELISA): mimotope peptides compete with plate-bound original epitope DAEFRH for recognition by the monoclonal antibody; type: binding, Mice
Description: Mice are vaccinated with the 6mer peptide DAEFRH (natural N-terminal Aβ42 sequence) linked to the protein bovine serum albumin BSA (to make use of the hapten-carrier-effect), emulsified in CFA (first injection) and IFA (booster injections). DAEFRH-peptide-specific, antibody-producing hybridomas are detected by ELISA (DAEFRH-peptide-coated ELISA plates).
FIGS. 2 and 3 describe the results of inhibition assays performed with mimotope peptides included in and obtained from the 5 libraries (as described in WO 2004/062556). The mimotope peptides compete with the original epitope for recognition by the monoclonal antibody. Original epitope and mimotope peptides contain an additional C at the C-terminus for coupling to a protein carrier (if desired).
After blocking with PBS/BSA 1% (200 μl/well, 12 h, 4° C.), the plates are washed 3× times with PBS/Tween. Then, biotinylated monoclonal antibody (1:2000, 50 μl/well) and peptides (50 μl/well) at 50, 5, 0.5, 0.05, 0.005, and 0.0005 μg/ml are added for 20 min. at 37° C. The plates are washed 3× times with PBS/Tween and are incubated with horseradish peroxidase (HRP)-labeled streptavidin (100 μl/well, 30 min, RT). The plates are washed 5× times with PBS/Tween and are incubated with ABTS+H2O2(0.1% w/v, 10 to 45 min) and the reaction is stopped with citric acid followed by photometric evaluation (wavelength 405 nm). […]

[2] = test system: full length Aβ and/or fragments thereof; test: Immune response elicited by using AD mimotopes: detection of Aβ; type: in vivo; parameters: key: +: All peptides listed in table 1 mount specific immune reactions against full length Aβ and/or fragments thereof
Description: In the following Table further examples of the immune response elicited by using AD mimotopes are described. All peptides listed in table 1 mount specific immune reactions against full length Aβ and/or fragments thereof.

In the case of `CC(C)C[C@H](NC(=O)[C@H](CCC(=O)O)NC(=O)[C@H](CCCCN)NC(=O)[C@@H](N)CC(=O)O)C(=O)N[C@@H](CCCNC(=N)N)C(=O)N[C@@H](CS)C(=O)O` [Peptide 1238, DKELR], the “inhibition of binding of the monoclonal antibody to the original epitope” value ([1]; competition ELISA, plate-bound DAEFRH-C-BSA, text to FIGS. 2-9) is reported as “block epitope recognition”, the “Inhibitory capacity of mimotopes” value ([1]; summary Tables 1 and 2 (Examples 2, 3)) is reported as “strong” and the “Detection of Aβ” value [2] is reported as “+”.
